The values below come from PubChem BioAssay (NCI).

Common to all, as to test: NCI-60 one-dose screen, 48 h (100 = growth as untreated, 0 = no growth, -100 = all killed)
Settings in all cases: 10 µM unless noted

Experiment [1] concerns NCI/ADR-RES ovarian.
Experiment [2] has as its system T-47D breast.
The test system of experiment [3] is BT-549 breast.
Experiment [4] deals with MDA-MB-435 melanoma.
Experiment [5] concerns SW-620 colon.
Experiment [6] concerns MCF7 breast.
Experiment [7] has as its system HCT-116 colon.
Experiment [8] has as its system HCC-2998 colon.
The subject of experiment [9] is KM12 colon.

Molecules are shown by their SMILES. The entries are a selection whose mix differs from that of the whole data set.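 How to read the values: 0–100, growth inhibition (40 = 60% inhibited); 0, no net growth; -100 to 0, cell death (-40 = 40% of starting cells died; -100 = all dead).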 The source made the active and inactive calls. Rule for the calls: active = growth percent below 10; inactive = the rest.

On to `O=[N+]([O-])c1cc2cn[nH]c2cc1[N+](=O)[O-]`, for which the growth is inactive: 101% in [1]; inactive: 101% in experiment [2]; inactive: 93.9% in experiment [3]; inactive: 108% in [4]; inactive: 101% in experiment [5]; inactive: 81.8% in [6]. Moreover, the growth in experiment [7] was inactive: 104%; in experiment [8], inactive: 110%; in experiment [9], inactive: 105%.

Take `CCOP(=O)(CCCBr)OCC`: the growth was inactive: 118% in experiment [1]; inactive: 101% in experiment [2]; inactive: 112% in [3]; inactive: 105% in experiment [4]; inactive: 105% in experiment [5]; inactive: 91.8% in experiment [6]. In addition, the figures for the growth in experiment [7], in [8] and in experiment [9] were inactive: 103%, inactive: 107% and inactive: 116%, respectively.

Take `CC(C)c1nc(Nc2ccccc2)n(P(=O)(N(C)C)N(C)C)n1`: the growth in experiment [1] was inactive: 103%; in experiment [2], inactive: 101%; in [3], inactive: 104%; in experiment [4], inactive: 113%; in experiment [5], inactive: 105%; in [6], inactive: 92.4%. Further, the growth is inactive: 99.7% in experiment [7], inactive: 108% in experiment [8] and inactive: 107% in experiment [9].

On to `ClCC1CS1` (stereo unspecified), for which the growth was inactive: 106% in [1]; inactive: 94.6% in experiment [2]; inactive: 97.1% in experiment [3]; inactive: 106% in [4]; inactive: 105% in [5]; inactive: 88.9% in experiment [6]. The growth in experiment [7] is inactive: 96.5%; in experiment [8] it was inactive: 116%; in experiment [9] it was inactive: 103%.

In the case of `ClCCN1CCNCC1`, the growth in [1] is inactive: 106%; in experiment [2], inactive: 105%; in experiment [3], inactive: 105%; in [4], inactive: 104%; in [5] it was inactive: 103%; in [6], inactive: 92.4%. The growth in experiment [7] is inactive: 106%; in experiment [8], inactive: 109%; in experiment [9] it was inactive: 107%.

As to `NC(=O)Nc1ccc([As](=O)(O)O)cc1`, the growth in experiment [1] was inactive: 105%; in experiment [2], inactive: 100%; in experiment [3], inactive: 102%; in [4] it was inactive: 106%; in [5], inactive: 105%; in [6] it was inactive: 88.9%. The growth in experiment [7] was inactive: 108%; in experiment [8] it was inactive: 106%; in experiment [9] it was inactive: 115%.

For the compound `CCOC(=O)Nc1ccc([As](=O)(O)O)c(O)c1`, the growth was inactive: 111% in experiment [1]; inactive: 83.7% in experiment [2]; inactive: 72% in [3]; inactive: 105% in experiment [4]; inactive: 117% in [5]; inactive: 91.3% in experiment [6]. Further, the growth in experiment [7] was inactive: 108%; in [8], inactive: 104%; in [9], inactive: 107%.

With `CCN(CCCl)CC1COc2ccccc2O1` (stereo unspecified), the growth in experiment [1] is inactive: 104%; in experiment [2] it was inactive: 103%; in [3], inactive: 104%; in experiment [4] it was inactive: 110%; in experiment [5], inactive: 98.1%; in experiment [6], inactive: 93.8%. For the same compound, the growth in [7] was inactive: 106%; in experiment [8], inactive: 110%; in experiment [9] it was inactive: 103%.

Take `Nc1ccc([As](=O)(O)c2ccc(N)cc2)cc1`: the growth in experiment [1] was inactive: 85.6%; in [2], inactive: 97.7%; in experiment [3], inactive: 124%; in [4], inactive: 104%; in [5] it was inactive: 94.8%; in [6], inactive: 92%. Besides, the growth in [7] was inactive: 93.5%; in experiment [8] it was inactive: 96.5%; in experiment [9], inactive: 103%.

With `CCc1cc(O)c([N+](=O)[O-])c(C)c1[N+](=O)[O-]`, the growth in [1] was inactive: 105%; in experiment [2] it was inactive: 118%; in [3], inactive: 112%; in [4], inactive: 112%; in experiment [5] it was inactive: 100%; in experiment [6], inactive: 113%. In addition, the growth in experiment [7] was inactive: 104%; in experiment [8], inactive: 108%; in experiment [9], inactive: 98.9%.

Take `NP(=O)(N(CCCl)CCCl)N1CC1` (stereo unspecified): the growth in [1] is inactive: 99.6%; in experiment [2] it was inactive: 93.5%; in [3], inactive: 96.1%; in experiment [4], inactive: 106%; in experiment [5], inactive: 103%; in [6], inactive: 95.5%. In addition, the figures for the growth in [7], in experiment [8] and in [9] were inactive: 92.7%, inactive: 102% and inactive: 113%, respectively.

`O=C(O)COc1ccc([As](=O)(O)O)cc1[N+](=O)[O-]`: the growth in experiment [1] is inactive: 96.4%; in [2], inactive: 97.4%; in experiment [3] it was inactive: 113%; in experiment [4] it was inactive: 115%; in experiment [5], inactive: 98.4%; in experiment [6] it was inactive: 97.5%. Also, the growth is inactive: 94.6% in experiment [7], inactive: 96.1% in [8] and inactive: 109% in experiment [9].

Regarding `O=[As]c1ccc(S(=O)(=O)Nc2ccccc2)cc1` (stereo unspecified), the growth in experiment [1] was inactive: 94.2%; in experiment [2] it was active: -19.7%; in [3] it was inactive: 21.1%; in [4], inactive: 65.3%; in [5] it was active: 4.73%; in [6] it was active: -24.1%. For the same compound, the growth in experiment [7] was inactive: 42.1%; in [8], inactive: 79.2%; in [9] it was inactive: 96.1%.

As to `O=P1(N(CCCl)CCCl)OCCCS1` (stereo unspecified), the growth was inactive: 111% in [1]; inactive: 109% in experiment [2]; inactive: 109% in [3]; inactive: 107% in experiment [4]; inactive: 111% in experiment [5]; inactive: 99.1% in [6]. Moreover, the growth in experiment [7] was inactive: 106%; in experiment [8] it was inactive: 99.9%; in [9] it was inactive: 108%.
